Assay results from ChEMBL document CHEMBL2406932, “Heteroaromatic and aniline derivatives of piperidines as potent ligands for vesicular acetylcholine transporter” (J Med Chem, 2013).

Sequences of proteins named here, by UniProt entry; tags and fusion partners are left off.
UniProt Q60492, whole entry: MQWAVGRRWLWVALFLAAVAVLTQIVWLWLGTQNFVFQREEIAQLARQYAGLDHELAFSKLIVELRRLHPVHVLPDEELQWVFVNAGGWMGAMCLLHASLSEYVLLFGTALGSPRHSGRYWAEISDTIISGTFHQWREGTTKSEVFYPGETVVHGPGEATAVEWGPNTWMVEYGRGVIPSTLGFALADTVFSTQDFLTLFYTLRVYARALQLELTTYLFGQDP

Assays:
[1] = system: PC-12; experiment: Selectivity ratio, ratio of Ki for sigma 1 receptor in guinea pig brain homogenates to Ki for human VAChT expressed in rat PC12 cells; assay type: cell-based
How it was run: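 Sigma-1 binding used guinea pig brain membranes (~300 µg protein) with ~5 nM (+)-[3H]pentazocine, 90 min at room temperature; nonspecific binding was set with 10 µM haloperidol. […] The index is Ki(σ1)/Ki(VAcHT).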

[2] = system: PC-12; experiment: Selectivity ratio, ratio of Ki for sigma 2 receptor in rat liver homogenates to Ki for human VAChT expressed in rat PC12 cells; assay type: cell-based
[3] = target: Sigma non-opioid intracellular receptor 1 (Cavia porcellus, UniProt Q60492); experiment: Displacement of (+)- [3H]pentazocine from sigma 1 receptor expressed in guinea pig brain membrane homogenates by scintillation counting analysis; assay type: cell membranes
How it was run: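 Guinea pig brain membrane homogenate (~300 µg protein) with ~5 nM (+)-[3H]pentazocine, 90 min at room temperature in 50 mM Tris-HCl, 150 mM NaCl, pH 7.4. Nonspecific binding taken with 10 µM haloperidol. Stopped with ice-cold wash buffer, then rapid filtration and washes. IC50 from nonlinear regression, one-site fit.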

| SMILES | Ratio Ki [1] | Ratio Ki [2] | pKi [3] |
| --- | --- | --- | --- |
| Cc1ccc(C(=O)C2CCN([C@@H]3Cc4ccccc4C[C@H]3O)CC2)cn1 (racemic) | 76 | 140 | – |
| Cc1ccc(C(=O)C2CCN([C@@H]3Cc4c(N)cccc4C[C@H]3O)CC2)cn1 (racemic) | – | – | 4.94 |

pKi: −log10 of the molar value.
